# Yeast mating assay B: variants of the scFv Ab-14

Values reported by Li et al. 2023, doi:10.1038/s41467-023-39022-2 (FLAb copy).

All variants were tested on one target, the spike HR2 peptide PDVDLGDISGINAS (SARS-CoV-2).

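Phage display of a naive human antibody library on the peptide gave the parent. The variants were designed computationally from a first round of random CDR variants and then made and measured. Their group label is 14H_En_HC (En: ensemble of fine-tuned language models; HC: hill climbing; a sequence that several methods proposed may carry one label only). The scFvs were displayed on barcoded MATa yeast, the peptide on MATalpha yeast. Pairs that bind mate more often; barcode pairs of the diploids are counted by sequencing. Read counts were normalised to the haploid input and turned into Kd by a linear fit to BCL2-family pairs of known affinity, for each replicate. Each pool was mated in six replicate cultures.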

Ab-14 is the parent antibody, in scFv form: VH, then a (GGGGS)3 linker, then VL. The light chain is unchanged in all variants.
VH: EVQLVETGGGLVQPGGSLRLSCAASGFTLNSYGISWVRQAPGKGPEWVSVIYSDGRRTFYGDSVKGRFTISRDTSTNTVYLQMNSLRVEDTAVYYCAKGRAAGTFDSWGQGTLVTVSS
VL: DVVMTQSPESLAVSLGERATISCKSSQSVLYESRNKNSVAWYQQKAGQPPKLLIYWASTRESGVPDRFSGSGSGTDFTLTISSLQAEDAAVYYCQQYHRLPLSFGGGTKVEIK

Each variant is given by its three heavy chain CDRs, as the data file delimits them; those of the parent are GFTLNSYGIS, VIYSDGRRTFYGDSVK, GRAAGTFDS. Affinities are written as log10 Kd with Kd in nM; a lower number is a better binder. A mean of the replicates is given; it leaves out those without a signal. A pair that was not seen in that replicate is written "nd"; this usually means weak binding, but a binder can also be missed. Empty control strains, which show no peptide, gave a signal in 1% of pairings with all heavy chain designs; the median was 2.08 and 95% of these signals were weaker than 0.84. No background was subtracted. Also given: how often the same scFv was detected with the empty control strains.

GFDLNEYGIS, VIYADGRRKFYADDVK, GENAGTFDV: -0.87, -0.69, -0.80, -1.07, -0.88, -0.69 (mean -0.83; controls 0 of 18).
GFDLEEYGIS, VIYADGMRTFYADKVK, GENAGTFDI: -0.16, 0.14, -0.13, 0.04, -0.14, -0.02 (mean -0.05; controls 0 of 18).
GFDLNEYGIS, VIYADGVRTFYTDSVK, GGNAGTFDV: 0.20, 0.28, 0.34, 0.42, 0.12, 0.76 (mean 0.35; controls 0 of 18).
GFDINEYGIS, VIYADGRRTAYADSVK, GENAGTFDS: -0.07, 0.31, -0.04, -0.49, -0.23, -0.26 (mean -0.13; controls 0 of 18).
GFDLNEYGIS, VIYADGRRTYYADSVK, GNLAGTFDQ: -0.30, -0.53, -0.52, -0.56, -0.40, -0.53 (mean -0.48; controls 0 of 18).
GFNLEDYGIS, VIYADGRRTFYSDSVK, GKVAGTFDV: -0.45, -0.59, -0.59, -0.58, -0.93, -0.54 (mean -0.61; controls 0 of 18).
GFDLNEYGIS, VIYADGRRTFYQDSVK, GEIAGTFDV: 0.34, -0.29, -0.26, -0.03, -0.31, -0.31 (mean -0.14; controls 0 of 18).
GFDLNEYGIS, VIYADGVRTAYADSVK, GKAAGTFDS: -0.38, -0.21, -0.54, -0.34, -0.56, -0.45 (mean -0.41; controls 0 of 18).
GFDLNEYGIS, VIYADGQRTFYSDSVK, GTVAGTFDS: -0.63, -0.77, -0.67, -0.92, -0.71, -0.98 (mean -0.78; controls 0 of 18).
GFDLNEYGIS, VIYADGRRTFYADSVK, GNTAGTFLF: 0.92, 0.33, 0.13, 0.24, 0.28, 0.25 (mean 0.36; controls 0 of 18).
GFDLNEYGIS, VIYADGRRTFYADSVK, GEIAGTFNS: -0.01, -0.43, -0.65, -0.64, -0.58, -0.33 (mean -0.44; controls 0 of 18).
GFDLNEYGIS, VIYADGRRTFYIDSVK, GQNAGTFDV: -0.53, -0.28, -0.51, -0.22, -0.57, -0.28 (mean -0.40; controls 0 of 18).
GFDLNEYGIS, VIYADGVRTFYSDSVK, GNVAGTFDS: 0.48, 0.07, 0.04, 0.15, 0.29, 0.11 (mean 0.19; controls 0 of 18).
GFDLNEYGIS, VIYADGRRTFYSDSVK, GEVGGTFDG: 0.42, 0.54, 0.59, 0.17, 0.63, 0.38 (mean 0.46; controls 0 of 18).
GFNLNEYGIS, VIYADGRRTFYTDDVK, GEFAGTFDI: 0.11, 0.22, -0.02, 0.00, 0.06, 0.29 (mean 0.11; controls 0 of 18).
GFNLEDYGIS, VIYADGRRTFYVDSVK, GEVAGTFDV: -0.17, -0.49, -0.64, -0.50, -0.26, -0.83 (mean -0.48; controls 0 of 18).
GFDLNEYGIS, VIYADGMRTQYSDSVK, GEQAGTFDL: -0.78, nd, nd, nd, nd, nd (controls 0 of 18).
GFDLNEYGIS, VIYADGVRTAYTDSVK, GNAAGTFDV: -1.41, -1.20, -1.05, 0.44, -1.50, -0.86 (mean -0.93; controls 0 of 18).
GFDLNEYGIS, VIYADGRRTFYSDSVK, GEEAGTFDQ: 0.29, -1.03, -0.33, -1.12, -0.75, -0.43 (mean -0.56; controls 1 of 18).
GFDLNEYGIS, VIYADGQRTFYTDSVK, GEHAGTFDV: -0.11, -0.36, -0.61, -0.68, -0.58, -0.53 (mean -0.48; controls 0 of 18).
GFDLDEYGIS, VIYADGMRTFYADSVK, GNIAGTFLT: -0.33, -0.15, -0.24, -0.52, 0.13, 0.22 (mean -0.15; controls 0 of 18).
GFDLNEYGIS, VIYADGRRTFYSDSVK, GNNAGTFDI: 0.22, 0.38, 0.63, 0.38, 0.21, 0.47 (mean 0.38; controls 1 of 18).
GFDLNEYGIS, VIYADGRRTFYADSVK, GEAAGTFDF: -0.57, 0.19, -0.64, -0.59, -0.45, -0.08 (mean -0.36; controls 0 of 18).
GFTLNEYGIS, VIYSDGRRTFYGDSVK, GRSAVTFDQ: nd, nd, nd, nd, nd, nd (controls 1 of 18).
GFTLDEYGIS, VIYADGRRTFYADSVK, GEVAGTFDQ: -0.41, -0.64, -0.55, -0.86, -0.54, -0.71 (mean -0.62; controls 0 of 18).
GFDLNDYGIS, VIYADGKRTAYIDSVK, GEVAGTFDS: -0.51, -0.69, -0.45, -1.07, -0.75, -0.49 (mean -0.66; controls 1 of 18).
GFDLNEYGIS, VIYADGVRTFYTDSVK, GENAGTFDI: 0.29, 0.12, 0.34, 0.62, -0.05, -0.22 (mean 0.18; controls 0 of 18).
GFNLNEYGIS, VIYADGMRTFYTDSVK, GEVAGTFDV: 0.43, -0.59, 0.01, -0.05, -0.07, 0.30 (mean 0.01; controls 0 of 18).
GFDLNEYGIS, VIYADGRRTQYIDSVK, GHVAGTFDS: nd, nd, nd, nd, nd, nd (controls 1 of 18).
GFDLNEYGIS, VIYADGVRTQYIDSVK, GETAGTFDS: 0.11, 0.05, -0.52, 0.26, -0.83, -0.23 (mean -0.19; controls 0 of 18).
GFDLNEYGIS, VIYADGRRTFYTDSVK, GQVAGTFDV: -0.55, -0.51, -0.52, -0.59, -0.65, -0.57 (mean -0.57; controls 0 of 18).
GFNLDEYGIS, VIYADGRRKFYADSVK, GNTAGTFDS: -0.67, -0.56, -0.43, -0.83, -0.60, -0.66 (mean -0.63; controls 0 of 18).
GFDLNEYGIS, VIYADGRRTFYADSVK, GEAAGTFDV: -0.23, -0.21, -0.31, -0.06, 0.67, -0.42 (mean -0.09; controls 0 of 18).
GFDLNEYGIS, VIYADGRRTFYLDSVK, GNLAGTFDQ: -0.78, -0.87, -1.10, -1.27, -0.81, -0.96 (mean -0.96; controls 0 of 18).
GFDLNEYGIS, VIYADGKRTFYIDSVK, GENAGTFDV: -0.14, 0.19, 0.08, -0.19, -0.13, 0.26 (mean 0.01; controls 1 of 18).
GFNLDEYGIS, VIYADGVRTFYADSVK, GQVAGTFDV: -0.63, -0.67, -0.63, -0.76, -0.71, -0.51 (mean -0.65; controls 0 of 18).
GFDLNEYGIS, VIYADGRRTFYADSVK, GQNAGTFDS: -1.65, -1.43, -1.55, -1.81, -0.97, -1.34 (mean -1.46; controls 0 of 18).
GFDLNEYGIS, VIYADGRRTFYIDSVK, GTAAGTFDI: -1.99, -1.92, -1.40, -1.95, -1.81, -1.26 (mean -1.72; controls 0 of 18).
GFDLDEYGIS, VIYADGKRTFYADSVK, GEAAGTFDV: 0.01, -0.23, -0.18, -0.23, -0.19, 0.05 (mean -0.13; controls 1 of 18).
GFDLNEYGIS, VIYADGRRTFYSDSVK, GTVAGFFDQ: nd, 1.22, -0.29, 0.63, -0.15, 0.89 (mean 0.46; controls 0 of 18).
GFDLNEYGIS, VIYADGRRTFYSDSVK, GEVAGTFVT: -0.06, -0.08, 0.05, -0.59, -0.37, 0.06 (mean -0.17; controls 0 of 18).
GFDLDEYGIS, VIYADGMRTFYTDSVK, GEAAGTFDV: -0.19, -0.44, -0.41, -0.83, -0.54, 0.07 (mean -0.39; controls 0 of 18).
GFDLDEYGIS, VIYADGRRTAYADSVK, GSNAGTFDM: 0.14, 0.57, -0.14, -0.06, 0.10, 0.02 (mean 0.10; controls 0 of 18).
GFNLDEYGIS, VIYADGRRTFYSDSVK, GEGAGTFDF: 1.72, 1.24, 0.83, 0.59, 0.75, 3.22 (mean 1.39; controls 0 of 18).
GFDLEEYGIS, VIYADGKRTFYSDSVK, GENAGTFDI: -0.24, -0.27, -0.26, -0.51, -0.38, -0.07 (mean -0.29; controls 0 of 18).

The 3 strongest on average among those seen in every replicate, once more:

| CDR-H1 | CDR-H2 | CDR-H3 | log10 Kd, replicates | mean log10 Kd (nM) | control signals |
|---|---|---|---|---|---|
| GFDLNEYGIS | VIYADGRRTFYIDSVK | GTAAGTFDI | -1.99, -1.92, -1.40, -1.95, -1.81, -1.26 | -1.72 | 0 of 18 |
| GFDLNEYGIS | VIYADGRRTFYADSVK | GQNAGTFDS | -1.65, -1.43, -1.55, -1.81, -0.97, -1.34 | -1.46 | 0 of 18 |
| GFDLNEYGIS | VIYADGRRTFYLDSVK | GNLAGTFDQ | -0.78, -0.87, -1.10, -1.27, -0.81, -0.96 | -0.96 | 0 of 18 |

Values of this round are not directly comparable with the first-round values of the same sequences. The authors averaged sequences with at least three values out of six and counted those with two or fewer as poor binders.